1 compound from PMC2229169 (The Journal of General Physiology, 1993) can be followed below.

Amino acid sequences for entries named in this document (tags omitted). A change or cut given only in a name is not applied to a line headed by its entry.
UniProt Q03719: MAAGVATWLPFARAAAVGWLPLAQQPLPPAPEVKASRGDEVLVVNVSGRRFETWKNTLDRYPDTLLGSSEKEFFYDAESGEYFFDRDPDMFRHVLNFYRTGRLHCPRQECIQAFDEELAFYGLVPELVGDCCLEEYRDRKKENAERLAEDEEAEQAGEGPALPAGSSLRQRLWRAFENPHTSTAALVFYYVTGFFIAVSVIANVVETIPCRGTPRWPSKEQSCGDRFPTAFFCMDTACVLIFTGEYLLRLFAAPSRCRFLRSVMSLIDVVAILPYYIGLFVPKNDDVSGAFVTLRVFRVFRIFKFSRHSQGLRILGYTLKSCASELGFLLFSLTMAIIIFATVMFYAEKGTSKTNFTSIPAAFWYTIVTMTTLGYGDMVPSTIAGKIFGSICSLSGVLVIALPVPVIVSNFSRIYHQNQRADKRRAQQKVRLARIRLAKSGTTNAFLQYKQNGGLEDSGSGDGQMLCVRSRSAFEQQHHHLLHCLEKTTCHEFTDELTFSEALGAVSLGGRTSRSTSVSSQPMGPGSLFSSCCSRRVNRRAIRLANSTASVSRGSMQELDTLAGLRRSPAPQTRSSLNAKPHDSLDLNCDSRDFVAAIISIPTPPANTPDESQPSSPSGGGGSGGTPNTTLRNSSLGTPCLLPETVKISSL

This assay has as its target mShal1 (mKv4.1) (Mus musculus, UniProt Q03719). In words: cell-based.

As a reminder, the IC50 is the concentration that inhibits the measured activity by half. Read a low IC50 as higher potency.

For `Nc1ccncc1` [4-AP, 4-aminopyridine], the IC50 amounted to 28.4 ± 1.6 mM.
